Assay results from ChEMBL document CHEMBL1201862, “PubChem BioAssay data set” (2004).
Some of the results follow. Rule as the data show it: active = GI50 up to about 1.1 µM and inactive = higher. Only a part of the results of these assays is listed, not drawn at random.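 Method: 48-hour compound exposure of cells in 96-well plates, five concentrations, linear interpolation of endpoints. Here, GI50 denotes the concentration required for 50% inhibition of growth.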

test system: KM12; experiment: NCI tumour cell line growth inhibition, 48 h

Structure (SMILES) | GI50
CCN(CCO)CCO.Oc1c(Cl)c(Cl)c(Cl)c(Cl)c1Cl | inactive: 19.5 µM
N1=C(c2nnn[nH]2)NNC(c2nnn[nH]2)=N1 | inactive: > 100 µM
CC1=C[C@H]2O[C@@H]3[C@H](O)[C@@H](O)[C@](C)([C@@]2(O)CC1)[C@]31CO1 | active: 0.237 µM

test system: LOX IMVI; experiment: NCI tumour cell line growth inhibition, 48 h

Structure (SMILES) | GI50
CCN(CCO)CCO.Oc1c(Cl)c(Cl)c(Cl)c(Cl)c1Cl | inactive: 18.1 µM
N1=C(c2nnn[nH]2)NNC(c2nnn[nH]2)=N1 | inactive: 43.6 µM
CC1=C[C@H]2O[C@@H]3[C@H](O)[C@@H](O)[C@](C)([C@@]2(O)CC1)[C@]31CO1 | active: 0.145 µM

test system: M14; experiment: NCI tumour cell line growth inhibition, 48 h

Structure (SMILES) | GI50
CCN(CCO)CCO.Oc1c(Cl)c(Cl)c(Cl)c(Cl)c1Cl | inactive: 20.1 µM
N1=C(c2nnn[nH]2)NNC(c2nnn[nH]2)=N1 | inactive: > 100 µM
Nc1c([N+](=O)[O-])cc([N+](=O)[O-])c(-c2nnc(-c3c([N+](=O)[O-])cc([N+](=O)[O-])c(N)c3[N+](=O)[O-])s2)c1[N+](=O)[O-] | inactive: 1.27 µM
